Test system: adult patients with uncontrolled gout
Details: MTX Run-in, mITT N = 14

SMILES: CN(Cc1cnc2nc(N)nc(N)c2n1)c1ccc(C(=O)N[C@@H](CCC(=O)O)C(=O)O)cc1 [Methotrexate]
- Infections And Infestations, Incidence Rate: 2.0 Events/PY of MTX
- Infections And Infestations, Total Events: 2

Reference: patent US20230301999A1, “METHODS OF TREATING GOUT” (Horizon Therapeutics USA, Inc., priority 2020, published 2023)
